US4125375A, “Separation of solid and liquid components of mixtures” (National Research Development Corporation, priority 1975, dated 1978)

Tested on: guinea pig anti-hFSH
Test: Radioimmunoassay for human follicle stimulating hormone (hFSH), solid phase second antibody separation
Format: binding
Description: A comparison of the separation of "bound" from "free" ^125 I-FSH by conventional centrifuge techniques and by the technique of the present invention is carried out as follows. After incubation of aliquots of the tracer (^125 I-FSH) and primary antibody (guinea pig anti-hFSH) a solid phase second antibody (rabbit anti-guinea pig γ globulin serum coupled to Sepharose 4B) is added to each incubate giving a total volume of 0.5 ml in each tube, and the tubes are agitated for 30 minutes. Control tubes containing tracer and solid phase second antibody but no primary antibody are also prepared for the purposes of comparison. The tubes are then divided into three groups (A, B and C) and further treated as follows. (A) 6 ml of diluent is added to each tube in this group and the diluent is thoroughly mixed with the incubate. The tubes are then centrifuged at 2000 g for 5 minutes and the supernatant liquid discarded. A further 6 ml of diluent is added to each tube, the diluent mixed with the deposit, centrifugation repeated, the supernatant again discarded, and the tubes are then counted using the Wallac auto-γ counter as in Example 1 though without the modifications as in FIG. 1. (B) 0.5 ml of diluent is added to each tube in this group and the diluent thoroughly mixed with the incubate. 1.2 ml of a 10% w/v aqueous solution of sucrose is then immediately added to each tube using a stainless steel probe and peristaltic pump as described in Example 1. The tubes are left to stand for 10 minutes during which time the solid bound Sepharose phase settles under the action of gravity into the sucrose layer. 1.2 ml of liquid (i.e. 1 ml of upper aqueous layer and the interface and about 0.2 ml of the sucrose) is then removed from the top of each tube by means of a glass tube connected to a water pump. The contents of each tube are then counted by placing them in an unmodified counter as in A above. (C) The tubes in this group are initially treated as are the tubes in Group B. Prior to counting however, 1.2 ml of 20% w/v aqueous sucrose solution is layered beneath the suspension of Sepharose in 10% sucrose. The tubes are then left to stand for a further 10 minutes, the Sepharose settling under the action of gravity into the layer of 20% sucrose, and 1.2 ml of liquid is removed from the top of each tube. The delivery and removal of liquids is carried out in the same way as in Group B. The tubes are then counted using an unmodified counter as above, the results obtained being given in Table 2 below.

In the case of “^125 I-FSH: tracer (^125 I-FSH) of the radioimmunoassay for human follicle stimulating hormone (hFSH)”, the “% Bound” value ("O" standards, Group A (centrifuged controls)) is reported as 36.9%, the “% Bound” value ("O" standards, Group B in situ system 1 wash (10% sucrose)) is reported as 36.9% and the “% Bound” value ("O" standards, Group C in situ system 2 washes (10% and 20% sucrose)) is reported as 34.3%. The “% Bound” value (Controls (no primary antibody), Group A (centrifuged controls)) was 2.9%, the “% Bound” value (Controls (no primary antibody), Group B in situ system 1 wash (10% sucrose)) was 1.8% and the “% Bound” value (Controls (no primary antibody), Group C in situ system 2 washes (10% and 20% sucrose)) was 0.8%.
